Measurements as given in US8053574B2, “Organic compounds” (Novartis AG, priority 2007, dated 2011).

The chains behind the UniProt entries cited, without tags or fusion partners. Where a name states a change or a piece, a line headed by the entry shows the natural chain unless it says otherwise.
UniProt P48736: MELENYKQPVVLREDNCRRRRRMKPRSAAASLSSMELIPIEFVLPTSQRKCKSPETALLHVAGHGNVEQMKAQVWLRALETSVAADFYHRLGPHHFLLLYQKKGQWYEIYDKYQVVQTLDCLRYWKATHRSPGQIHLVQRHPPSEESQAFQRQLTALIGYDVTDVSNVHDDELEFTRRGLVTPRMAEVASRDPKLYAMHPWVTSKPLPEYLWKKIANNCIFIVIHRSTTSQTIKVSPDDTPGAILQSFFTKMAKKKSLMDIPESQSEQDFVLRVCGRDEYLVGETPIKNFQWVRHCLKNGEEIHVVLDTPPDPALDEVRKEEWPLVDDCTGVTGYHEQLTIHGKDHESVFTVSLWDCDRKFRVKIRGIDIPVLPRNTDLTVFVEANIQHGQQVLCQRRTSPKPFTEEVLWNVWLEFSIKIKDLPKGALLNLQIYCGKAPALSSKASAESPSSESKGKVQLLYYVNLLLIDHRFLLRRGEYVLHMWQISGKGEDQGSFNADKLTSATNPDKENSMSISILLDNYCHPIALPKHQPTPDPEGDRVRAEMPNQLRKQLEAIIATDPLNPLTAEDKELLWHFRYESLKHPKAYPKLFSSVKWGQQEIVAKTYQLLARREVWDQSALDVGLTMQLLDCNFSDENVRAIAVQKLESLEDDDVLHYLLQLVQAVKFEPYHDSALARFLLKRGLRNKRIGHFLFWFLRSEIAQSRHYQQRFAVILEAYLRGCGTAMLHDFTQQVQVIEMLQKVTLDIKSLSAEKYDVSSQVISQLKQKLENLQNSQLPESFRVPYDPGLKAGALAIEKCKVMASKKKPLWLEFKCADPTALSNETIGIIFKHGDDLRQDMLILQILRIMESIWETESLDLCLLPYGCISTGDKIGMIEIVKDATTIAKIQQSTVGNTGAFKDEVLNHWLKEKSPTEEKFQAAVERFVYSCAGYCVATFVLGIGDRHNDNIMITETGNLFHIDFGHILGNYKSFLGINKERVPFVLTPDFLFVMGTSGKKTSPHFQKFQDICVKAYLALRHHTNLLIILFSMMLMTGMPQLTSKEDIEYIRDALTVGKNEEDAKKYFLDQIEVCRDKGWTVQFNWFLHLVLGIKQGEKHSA

Target: PI3K γ (Homo sapiens, UniProt P48736)
Assay: PI3 kinase phosphorylation assay (Biological Method 1), Ki γ
Assay type: biochemical
Settings: Table 1, compounds of formula X
Procedure: The compounds of the invention were synthesized according to the examples provided above. PI3K inhibitory (IC50) values of the compounds were determined according to Biological Method 1.
Assay 1: Homogenous Solution Phase Assay
Compounds to be tested are dissolved in DMSO and directly distributed into 384-well flashplates at 1.25 μL per well. To start the reaction, 20 μL of 6 nM PI3 kinase are added into each well followed by 20 μL of 400 nM ATP containing a trace of radiolabeled ATP and 900 nM 1-alpha-phosphatidylinositol (PI). The plates are briefly centrifuged to remove any air gap. The reaction is performed for 15 minutes and then stopped by the addition of 20 μL of 100 mM EDTA. The stopped reaction is incubated overnight at RT to allow the lipid substrate to bind by hydrophobic interaction to the surface of the flashplate. The liquid in the wells is then washed away, and the labeled substrate is detected with scintillation counting.
Assay 2: One Step Solid Phase Assay
This method is similar to Assay 1 except that the lipid substrate (1-alpha-phosphatidylinositol (PI)) is first dissolved in a coating buffer and incubated on flashplate at room temperature overnight to allow the lipid substrate to bind by hydrophobic interaction to the surface of the flashplate. Unbound substrate is then washed away. On the day of assay, 20 μL of 6 nM PI3 kinase are added into each well followed by 20 μL of 400 nM ATP containing trace of radiolabeled ATP. Compounds are added together with enzyme and ATP to the lipid-coated plates. The plates are briefly centrifuged to remove any air gap. The reaction is performed for two to three hours. The reaction is stopped by addition of 20 μL of 100 mM EDTA or by immediate plate washing. Phosphorylated lipid substrate is detected by scintillation counting.
Assay 3: ATP Depletion Assay
Compounds to be tested are dissolved in DMSO and directly distributed into a black 384-well plate at 1.25 μL per well. To start the reaction, 25 μL of 10 nM PI3 kinase and 5 μg/mL 1-alpha-phosphatidylinositol (PI) are added into each well followed by 25 μL of 2 μM ATP. The reaction is performed until approx 50% of the ATP is depleted, and then stopped by the addition of 25 μL of KinaseGlo solution. The stopped reaction is incubated for 5 minutes and the remaining ATP is then detected via luminescence.

Compound	Ki
CCn1nnc(CCNC(=O)Nc2cn3cc(-c4cncc(C(=O)N5CCOCC5)c4)ccc3n2)n1	0.083 µM
CC(C)n1nnc(CCNC(=O)Nc2cn3cc(-c4cccnc4)ccc3n2)n1 [drawing 15]	0.058 µM
CCn1nnc(CCNC(=O)Nc2cn3cc(-c4cccnc4)ccc3n2)n1 [drawing 23]	0.08 µM
CC(C)(C)NC(=O)CCNC(=O)Nc1cn2cc(-c3cccnc3)ccc2n1 [drawing 35]	0.121 µM
CCn1cnc(CCNC(=O)Nc2cn3cc(-c4cccnc4)ccc3n2)c1 [drawing 77]	0.081 µM
CC(C)(C)OC(=O)CCNC(=O)Nc1cn2cc(-c3cccnc3)ccc2n1 [drawing 79]	0.043 µM
Cn1nnc(CCNC(=O)Nc2cn3cc(-c4cccnc4)ccc3n2)n1 [drawing 85]	0.277 µM
Cn1nnnc1CCNC(=O)Nc1cn2cc(-c3cccnc3)ccc2n1 [drawing 87]	0.584 µM
CCc1nnn(CCNC(=O)Nc2cn3cc(-c4cccnc4)ccc3n2)n1 [drawing 101]	0.177 µM

Same assay, conditions: Table 2, compounds of formula X

Compound	Ki
1-[2-(2-Isopropyl-2H-tetrazol-5-yl)-ethyl]-3-(6-phenyl-imidazo[1,2-a]pyridin-2-yl)-urea [Example 1-10]	0.083 µM
CC(C)n1nnc(CCNC(=O)Nc2cn3cc(-c4cccnc4)ccc3n2)n1 [Example 1-1, 1-[2-(2-Isopropyl-2H-tetrazol-5-yl)-ethyl]-3-(6-pyridin-3-yl-imidazo[1,2-a]pyridin-2-yl)-urea]	0.058 µM
CCn1nnc(CCNC(=O)Nc2cn3cc(-c4cccnc4)ccc3n2)n1 [Example 1-5, 1-[2-(2-Ethyl-2H-tetrazol-5-yl)-ethyl]-3-(6-pyridin-3-yl-imidazo[1,2-a]pyridin-2-yl)-urea]	0.08 µM
CC(C)(C)NC(=O)CCNC(=O)Nc1cn2cc(-c3cccnc3)ccc2n1 [Example 1-11, N-tert-Butyl-3-[3-(6-pyridin-3-yl-imidazo[1,2-a]pyridin-2-yl)-ureido]-propionamide]	0.121 µM
CCn1cnc(CCNC(=O)Nc2cn3cc(-c4cccnc4)ccc3n2)c1 [Example 1-32, 1-[2-(1-Ethyl-1H-imidazol-4-yl)-ethyl]-3-(6-pyridin-3-yl-imidazo[1,2-a]pyridin-2-yl)-urea]	0.081 µM
CC(C)(C)OC(=O)CCNC(=O)Nc1cn2cc(-c3cccnc3)ccc2n1 [Example 1-33, 3-[3-(6-Pyridin-3-yl-imidazo[1,2-a]pyridin-2-yl)-ureido]-propionic acid tert-butyl ester]	0.043 µM
Cn1nnc(CCNC(=O)Nc2cn3cc(-c4cccnc4)ccc3n2)n1 [Example 1-36, 1-[2-(2-Methyl-2H-tetrazol-5-yl)-ethyl]-3-(6-pyridin-3-yl-imidazo[1,2-a]pyridin-2-yl)-urea]	0.277 µM
Cn1nnnc1CCNC(=O)Nc1cn2cc(-c3cccnc3)ccc2n1 [Example 1-37, 1-[2-(1-Methyl-1H-tetrazol-5-yl)-ethyl]-3-(6-pyridin-3-yl-imidazo[1,2-a]pyridin-2-yl)-urea]	0.584 µM
CCc1nnn(CCNC(=O)Nc2cn3cc(-c4cccnc4)ccc3n2)n1 [Example 1-44, 1-[2-(5-Ethyl-tetrazol-2-yl)-ethyl]-3-(6-pyridin-3-yl-imidazo[1,2-a]pyridin-2-yl)-urea]	0.177 µM
